Results from patent US20040266791A1 (priority 2003, published 2004).
Counter-ions that a name gives are not always drawn. Like-named read-outs stand apart in the source and are kept apart here.

Key:
[1] = in water at 20° C., calculated on free base
physchem = conditions: water, 20 °C, thermodynamic from solid, water at about 20° C.
[2] = reported in U.S. Pat. No. 5,616,587; cited from earlier work

SMILES	solubility (calc. on free base) [1]	further results
CC(O)C(=O)O.Cc1nc2n(c(=O)c1CCN1CCC(c3noc4cc(F)ccc34)CC1)CCCC2 [Risperidone (L)lactate]	12 mg/mL	
Cc1nc2n(c(=O)c1CCN1CCC(c3noc4cc(F)ccc34)CC1)CCCC2.O=C(O)C(O)c1ccccc1 [Risperidone (R)-mandelate]	9.3 mg/mL	
Cc1nc2n(c(=O)c1CCN1CCC(c3noc4cc(F)ccc34)CC1)CCCC2 [Risperidone dihydrochloride]		solubility (physchem): > 80 mg/mL; solubility (calc. on free base) ([1]; dihydrochloride): 84 mg/mL
Cc1nc2n(c(=O)c1CCN1CCC(c3noc4cc(F)ccc34)CC1)CCCC2.Cc1nc2n(c(=O)c1CCN1CCC(c3noc4cc(F)ccc34)CC1)CCCC2.O=S(=O)(O)CCS(=O)(=O)O [Risperidone hemiedisylate]	63 mg/mL	
Cc1nc2n(c(=O)c1CCN1CCC(c3noc4cc(F)ccc34)CC1)CCCC2.O=C(O)C=CC(=O)O [Risperidone hydrogenmaleate]	39 mg/mL	
Cc1nc2n(c(=O)c1CCN1CCC(c3noc4cc(F)ccc34)CC1)CCCC2 [Risperidone monohydrochloride]		solubility (calc. on free base) ([1]; monohydrochloride): 7.3 mg/mL
Cc1nc2n(c(=O)c1CCN1CCC(c3noc4cc(F)ccc34)CC1)CCCC2 [risperidone hydrochloride]		room temperature solubility [2]: about 19.6 mg/ml
